Columns and labels:
parental MCF-7 cells = test: Growth and killing of parental MCF-7 cells in vitro; type: cell-based, human; conditions: 48 hrs of exposure to 5 μM
TMXR MCF-7 cells = test: Growth and killing of TMXR MCF-7 cells in vitro; type: cell-based, human; conditions: 48 hrs of exposure to 5 μM

For 4-hydroxycyclophosphamide, the cells killed (parental MCF-7 cells) was 70% and the cells killed (TMXR MCF-7 cells) was under 10%.

Source: patent US20180171288A1, “METHODS OF TREATING CANCER” (THE UNIVERSITY OF ROCHESTER, priority 2016, published 2018)
